Like-named read-outs stand apart in the source and are kept apart here.
Columns and labels:
[1] = tested on: microRNA 1262, microRNA 98 and microRNA 30c-1; conditions: three microRNAs 1262, 98, 30c-1
[2] = tested on: microRNAs 885-3p, 888*, 98, 1262, 1229, 30c-1*, 891b, 302b, 1246, and 502-3p
[3] = correct predictions out of 30 (ten microRNAs x three experiments)

Row | SMILES | Aggregate result, result [1] | Aggregate result, correct [2, 3] | Aggregate result, result ([2]; ten microRNAs) | Aggregate result, result [2] | Aggregate result, correct ([2]; human)
1 | CC1(C)S[C@@H]2[C@H](NC(=O)[C@H](N)c3ccccc3)C(=O)N2[C@H]1C(=O)O [Ampicillin trihydrate] | NGTX (predicted to be in vivo NGTX when more than 50% of the microRNAs gave the prediction in vivo NGTX than in vivo GTX) | 25/30 | NGTX (predicted to be in vivo NGTX when more than 50% of the microRNAs gave the prediction in vivo NGTX than in vivo GTX) |  | 
2 | O=c1c(O)c(-c2ccc(O)c(O)c2)oc2cc(O)cc(O)c12 [Quercetin] | NGTX (predicted to be in vivo NGTX when more than 50% of the microRNAs gave the prediction in vivo NGTX than in vivo GTX) | 16/30 | NGTX (predicted to be in vivo NGTX when more than 50% of the microRNAs gave the prediction in vivo NGTX than in vivo GTX) |  | 
3 | Clc1cc2c(cc1Cl)Oc1cc(Cl)c(Cl)cc1O2 [2,3,7,8-tetrachloro dibenzo-p-dioxin] | NGTX (predicted to be in vivo NGTX when more than 50% of the microRNAs gave the prediction in vivo NGTX than in vivo GTX) | 23/30 | NGTX (predicted to be in vivo NGTX when more than 50% of the microRNAs gave the prediction in vivo NGTX than in vivo GTX) |  | 
4 | c1ccc2c(c1)cc1ccc3cccc4ccc2c1c34 [Benzo[a]pyere] | GTX (predicted to be in vivo GTX when more than 50% of the microRNAs gave the prediction in vivo GTX than in vivo NGTX) | 23/30 | GTX (predicted to be in vivo GTX when more than 50% of the microRNAs gave the prediction in vivo GTX than in vivo NGTX) |  | 
5 | N.N.[Cl][Pt][Cl] [Cisplatin] | GTX (predicted to be in vivo GTX when more than 50% of the microRNAs gave the prediction in vivo GTX than in vivo NGTX) | 24/30 | GTX (predicted to be in vivo GTX when more than 50% of the microRNAs gave the prediction in vivo GTX than in vivo NGTX) |  | 
6 | C[C@]12CC[C@@H]3c4ccc(O)cc4CC[C@H]3[C@@H]1CC[C@@H]2O [17beta-estradiol, 17 beta-estradiol] | NGTX (predicted to be in vivo NGTX when more than 50% of the microRNAs gave the prediction in vivo NGTX than in vivo GTX) | 17/30 | NGTX (predicted to be in vivo NGTX when more than 50% of the microRNAs gave the prediction in vivo NGTX than in vivo GTX) |  | 
7 | Oc1cccc2cccnc12 [8-quinolinol] |  |  |  | NGTX | 19/30

Reference: US20130244896A1, “IN VITRO METHOD FOR PREDICTING WHETHER A COMPOUND IS GENOTOXIC IN VIVO” (priority 2012, published 2013)
